Data taken from PubChem BioAssay AID588492 (Sanford-Burnham Center for Chemical Genomics, 2011).
Only a part is listed here, and it is no random draw. The source made the active and inactive calls.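 Rule for the calls: active = compounds giving at least 50% protection of heart cells from peroxide-induced death in the single-dose screen, raw or plate-pattern-corrected value; inactive = the rest.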

Experiment: H9c2 cardiomyocyte survival under peroxide injury – uHTS, H9c2 cells, ATPLite luminescence, primary screen (AID 588492);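 note: 0% = DMSO wells with peroxide and 100% = DMSO wells without peroxide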
Details: H9c2 cardiomyocytes, 2 h, at 20 µM, stronger effect = higher value

SMILES | protection from H2O2 cell death
NC(=O)Nc1ccc([As](=O)(O)O)cc1 | inactive: 8.7%
O=C(O)COc1ccc([As](=O)(O)O)cc1[N+](=O)[O-] | inactive: -0.7%
Nc1ccccc1[As](=O)(O)c1ccccc1 | inactive: 1.2%
CS(=O)(=O)c1cc([N+](=O)[O-])c2no[n+]([O-])c2c1 | inactive: -7.2%
O=P(Nc1nccs1)(Oc1ccccc1)Oc1ccccc1 | inactive: 8.3%
O=P(Nc1nccs1)(c1ccccc1)c1nc2ccccc2s1 (stereo unspecified) | inactive: -6.4%
CCOP1(=S)c2c(C)nn(CCC#N)c2N=C(c2ccccc2F)N1C (stereo unspecified) | inactive: 8.8%
CCOP(=O)(Nc1cccc2ccccc12)OCC | inactive: -2.1%
COc1cc(C2NCCC3(OCCO3)C2(C)C)cc(OC)c1OC (stereo unspecified) | inactive: -8.5%
CCCOP(=S)(Nc1nc(N)cc(=O)[nH]1)OCCC | inactive: 1.9%
Cc1ccc(NCCc2c([N+](=O)[O-])cc([N+](=O)[O-])cc2[N+](=O)[O-])cc1 | inactive: -3.3%
Nc1cccc2c([As](=O)(O)O)cccc12 | inactive: 3.4%
Cc1cccc(OCC(=O)OC2CN3CCC2CC3)c1 (stereo unspecified) | inactive: 13.8%
O=[As](O)(c1cccc(O)c1)c1cccc(O)c1 | inactive: 1.9%
CS(=O)(=O)c1ccc(Cl)c(NC(=O)COC(=O)C(O)(c2ccccc2)c2ccccc2)c1 | inactive: 2.6%
O=[As](O)(O)c1cccnc1 | inactive: 0%
O=C(OC1CN2CCC1CC2)c1ccc(Cl)cc1 (stereo unspecified) | inactive: 2.3%
CC1(CBr)Cn2c(nc3ccccc3c2=O)S1 (stereo unspecified) | inactive: -1.2%
CN(C(=O)Cc1ccc(Cl)c(Cl)c1)[C@@H]1CCCC[C@H]1N1CCCC1 | inactive: -2.3%
CC(C)/C=N\N=C(\N)N[N+](=O)[O-] | inactive: 4.8%
COc1ccccc1CNC(=O)COC(=O)C(O)(c1ccccc1)c1ccccc1 | inactive: -3.4%

SMILES | protection from H2O2 cell death
CC(C)(C)C(=O)NC(Sc1ncccn1)C(Cl)(Cl)Cl (stereo unspecified) | inactive: 0.8%
Clc1n[nH]nc1-c1nn[nH][15n]1 | inactive: -1.6%
O=P1(N(CCCl)CCCl)NCCC(C(F)(F)F)O1 (stereo unspecified) | inactive: 6.9%
CCOP(=O)(Nc1ccc(C)cn1)OCC | inactive: -0.7%
CN(CCCl)Cc1cc(Cl)c(NC2=NCCN2)c(Cl)c1 | inactive: 0.8%
CCOP(=O)(NC(=NC(C)c1ccccc1)NC(C)c1ccccc1)OCC (stereo unspecified) | inactive: 2.9%
CCC1=CC2Cc3nc4ccc(Cl)cc4c(N)c3C(C1)C2 (stereo unspecified) | inactive: -17.6%
O=P1(Nc2ccccn2)COc2ccccc2OC1 | inactive: -0.1%
Cc1ccc(OCC(=O)OC2CN3CCC2CC3)cc1 (stereo unspecified) | inactive: 3%
O=[As](O)(c1cccs1)c1cccs1 | inactive: 4%
NS(=O)(=O)c1cccc(NC(=O)COC(=O)C(O)(c2ccccc2)c2ccccc2)c1 | inactive: -5.4%
O=P1(Nc2ccc(Br)cn2)COc2ccccc2OC1 | inactive: -0.2%
Nc1cccc([As](=O)(O)c2ccccc2)c1 | inactive: -3.7%
O=P1(Nc2ncccn2)COc2ccccc2OC1 | inactive: -1%
Cc1ccc(S(=O)(=O)N(CCCN)CCCc2c(C)nc(N)[nH]c2=O)cc1 | inactive: 1.2%
CCCC1OP(=O)(Nc2ccccc2)OCC1CC (stereo unspecified) | inactive: -4.7%
O=C(/C=C/c1ccccc1)OC1CN2CCC1CC2 (stereo unspecified) | inactive: -2.1%
Cc1ccc(C(=O)OC2CN3CCC2CC3)cc1 (stereo unspecified) | inactive: 3.5%
CC1CCC(C(C)C)C(OP(=O)(Nc2ccccn2)c2ccccc2)C1 (stereo unspecified) | inactive: 46.5%
Cc1nn(-c2ccccc2)c2c1P(=O)(N1CCOCC1)N(C)C(c1ccccc1)=N2 (stereo unspecified) | inactive: 7.5%
